The record followed here is PubChem BioAssay AID889 (National Center for Advancing Translational Sciences (NCATS), 2007).

Protein sequences, listed by entry. Tags and fused reporters are not part of them. Lines headed by an entry give the natural chain unless they say otherwise; changes in a name come on top.
UniProt P55210: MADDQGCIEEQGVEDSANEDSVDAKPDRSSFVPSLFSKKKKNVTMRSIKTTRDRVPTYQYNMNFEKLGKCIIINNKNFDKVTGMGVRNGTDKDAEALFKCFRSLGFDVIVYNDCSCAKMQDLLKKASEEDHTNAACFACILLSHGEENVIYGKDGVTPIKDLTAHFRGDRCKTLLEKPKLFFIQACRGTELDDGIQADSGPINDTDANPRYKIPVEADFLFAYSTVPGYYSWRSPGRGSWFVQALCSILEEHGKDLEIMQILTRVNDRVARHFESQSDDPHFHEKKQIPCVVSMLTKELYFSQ

Molecules are shown by their SMILES. Where “and” joins values, the source holds several entries; their conditions need not be identical. Identical values can stand only once. The list shows a part of the results, in another mix than the full data. Inconclusive results are not listed. Calls of active or inactive are those of the source. The call rests on the fitted dose curve; in most records, active means well fitted inhibition curve with a large enough effect in the main read-out, with a control signal flat (not every such curve was filed as active); inconclusive means small, poorly fitted or top-dose-only effect, or a change in a side signal; inactive means flat fitted curve, though single readings scatter.

The target in the test is Caspase-7 (Homo sapiens) (UniProt P55210). In words: qHTS Assay for Allosteric/Competitive Inhibitors of Caspase-7. Further: % of control where 0% means no effect. Particulars: recombinant caspase-7, Ac-DEVD-AFC fluorescence rate. From the text:
NIH Molecular Libraries Screening Centers Network [MLSCN]
NIH Chemical Genomics Center [NCGC]
PI Name: Dr. James Wells,
Dr. Enrique Perez-Paya, Dr.Janice Williams, Dr. Dennis Wolan, a person
The caspases (Cysteine Aspartyl Protease) comprise a related family of 14 dimeric proteases that are critical mediators of apoptosis (programmed cell death) and inflammation. The caspases represent an important class of drug targets for stroke, ischemia, cancer and inflammatory diseases. […] One goal of this project was to identify compounds that act as allosteric inhibitors via stabilizing the procaspase form of the enzyme. Previous work in Well's laboratory has shown that such allosteric inhibitors can be identified and these act by binding at the dimer interface of enzyme (Hardy, Lam et al., 2004).
The biochemical assay was configured using purified caspase 7 at a high enzyme concentration to promote formation of the homodimers and thus facilitate the identification of allosteric inhibitors. The overall goal was to identify reversible inhibitors with better drug-like properties than the currently available set of aspartyl-containing peptidomimetics that covalently bind the active site. Caspase 7 was assayed using the profluorescent substrate Ac-DEVD-AFC. After initiation of the assay with substrate the plates were rapidly read using an automated robotic system (Kalypsys, Inc.) to maintain consistent timing. A kinetic mode of detection was used where the initial rate was collected (estimated final product formation was ~10%). Compounds were screened as a concentration-titration series that ranged from 57 uM to 0.7 nM. Below is the protocol used for caspase 7.
NCGC Assay Protocol Summary:
Caspase 7 was prepared in buffer (50 mM HEPES pH 7.5, 50 mM KCl, 200 mM NaCl, 10 mM DTT, 0.1% CHAPS) at a concentration of 66.6 nM and 3 uL was dispensed to all wells using black solid Kalypsys 1536-well plates. 20 nL of DMSO containing compounds was added using a pin-tool (Kalypsys Inc.) to columns 5-48. Then 20 nL of DMSO solution from a control plate was added to columns 1-4. Controls were: Column 1, 16 point titration with each concentration in duplicate (1:1 dilutions in DMSO; final starting concentration was 57 uM) of the caspase 7 inhibitor Ac-DEVD-CHO (Alexis Biochemicals); Column 2, a 16 point titration with each concentration in duplicate of the free AFC fluorophore prepared in DMSO (Alexis Biochemicals), final starting was 40 uM; Column 3 neutral (DMSO only) control; Column 4: DMSO alone, to serve as a negative control (no substrate was added). Then 1 uL of 20 uM the substrate Ac-DEVD-AFC (Alexis Biochemicals) prepared in the same buffer was dispensed to all wells except columns 2 and 4 and the plates were immediately transferred (< 1 min) to the Viewlux. The plates were then exposed using 405 nm excitation/520 nm emission filters for 4 sec and read at 20 sec intervals for 3 min. Final enzyme concentration was 50 nM and the final substrate concentration was 5 uM.
Concentration-response curves were fitted to the data calculated from slope of the linear regression of fluorescent intensity versus time (the rate). The concentration-effect curves were then classified based on curve quality (r2), response magnitude and degree of measured activity. […] Inconclusive compounds had appreciable concentration-dependent effects on both the measured rate and the interpolated basal fluorescence intensity at the start of the reaction but where the basal fluorescent intensity was marginal (e.g. < 10-fold). Inconclusive compounds also encompass highly fluorescent compounds (>100-fold increases in fluorescent intensities values relative to controls) where artificial concentration-dependent decreases in the rate occurred at high compound concentrations due to fluorescent interferences.
Keywords: Caspase 7, proteases, profluorescent, MLSMR, MLSCN, NIH Roadmap, qHTS, NCGC
On the technique in general: Quantitative high-throughput screening tests each substance at several concentrations.

[1] abbreviates: at 57.5 µM (top of the series) unless noted.

In the case of `CN(C(=O)Cc1ccccc1)[C@@H]1CC[C@@]2(CCCO2)C[C@H]1N1CCCC1`, under setting [1], the activity change, negative = inhibition was inactive: 0.866%.

Consider `CCc1nc2c(n1)c1c(non1O)c1c2no[n+]1[O-]`, for which the activity change, negative = inhibition under setting [1] was inactive: -0.648%.

For the molecule `O=C(CO)Nc1ccc([As](=O)(O)O)cc1`, under setting [1], the activity change, negative = inhibition was inactive: 0.208% [at 11.5 µM].

As for `O=[N+]([O-])c1ccc(C[As](=O)(O)O)cc1`, the activity change, negative = inhibition under setting [1] is inactive: 0.154% [at 11.5 µM].

Regarding `Cc1c2non([O-])c-2c(C)[n+](=O)[n+]1[O-]`, the activity change, negative = inhibition under setting [1] is inactive: 0.735%.

With `NCC[C@@H](N)CSP(=O)(O)O`, the activity change, negative = inhibition under setting [1] is inactive: -0.217% [at 11.5 µM].

On to `CN(C(=O)Cc1ccc(Cl)c(Cl)c1)[C@H]1CCCC[C@@H]1N1CCCC1`, for which the activity change, negative = inhibition under setting [1] is inactive: -0.882% and inactive: 0.261% and inactive: -1.39%.

For the molecule `[N-]=[N+]=NCC(O)CN=[N+]=[N-]` (configuration not stated), under setting [1], the activity change, negative = inhibition was inactive: 2.25% [at 11.5 µM].

Consider `C(Cc1nn[nH]n1)c1nn[nH]n1`, for which the activity change, negative = inhibition under setting [1] is inactive: 1.67% [at 11.5 µM].

On to `COC(=O)c1cc2c(s1)N=C(c1ccccc1)N(C)P2(=O)N1CCOCC1` (configuration not stated), for which the activity change, negative = inhibition under setting [1] was inactive: 0.374%.

For `O=P1(Nc2nc3ccc(Cl)cc3s2)COc2ccccc2O1` (configuration not stated), the activity change, negative = inhibition under setting [1] is inactive: -0.347%.

Turning to `O=P(Nc1nccs1)(c1ccccc1)c1ccccc1`, the activity change, negative = inhibition under setting [1] is inactive: 1.53%.

As to `c1nnnn1CCn1cnnn1`, under setting [1], the activity change, negative = inhibition is inactive: -2.43%.

Take `CN1CCC[C@H](OC(=O)C(c2ccccc2)c2ccccc2)C1`: under setting [1], the activity change, negative = inhibition is inactive: 3.64% [at 11.5 µM].

On to `C[C@@H](O)COc1ccc([As](=O)(O)O)cc1N`, for which the activity change, negative = inhibition under setting [1] was inactive: 1.3% [at 11.5 µM].

In the case of `Cc1cc([N+](=O)[O-])cc([N+](=O)[O-])c1O`, the activity change, negative = inhibition under setting [1] was inactive: -5.28%.

On to `[N-]=[N+]=Nc1ccc([As](=O)(O)O)cc1`, for which, under setting [1], the activity change, negative = inhibition is inactive: 1.39% [at 11.5 µM].

As to `O=C(OC1CN2CCC1CC2)c1cccc(Cl)c1` (configuration not stated), the activity change, negative = inhibition under setting [1] was inactive: 1.15%.

`Cc1nn(-c2ccccc2)c2c1P(=O)(N1CCOCC1)N(C)C(c1ccccc1)=N2` (configuration not stated): the activity change, negative = inhibition under setting [1] is inactive: 6.57%.

As to `O=P1(Nc2ncccn2)COc2ccccc2OC1`, the activity change, negative = inhibition under setting [1] was inactive: 0.168%.

For `O=P1(Nc2ccc(Br)cn2)COc2ccccc2OC1`, the activity change, negative = inhibition under setting [1] was inactive: 2.63%.

With `O=P1(Nc2ccccn2)COc2ccccc2OC1`, the activity change, negative = inhibition under setting [1] was inactive: 0.389%.

Regarding `CN(CCCl)Cc1cc(Cl)c(NC2=NCCN2)c(Cl)c1`, the activity change, negative = inhibition under setting [1] is inactive: 0.705%.

As to `Clc1n[nH]nc1-c1nn[nH][15n]1`, the activity change, negative = inhibition under setting [1] was inactive: -0.33%.

On to `CN(C(=O)Cc1ccc(Cl)c(Cl)c1)[C@@H]1CCCC[C@H]1N1CCCC1`, for which the activity change, negative = inhibition under setting [1] was inactive: 0.733% [middle of 4 runs].

On to `NS(=O)(=O)Cc1ccc([As](=O)(O)O)cc1`, for which the activity change, negative = inhibition under setting [1] was inactive: -2.06% [at 11.5 µM].

Take `O=C(CC(=O)c1ccccc1)O[C@H]1CN2CCC1CC2`: the activity change, negative = inhibition under setting [1] is inactive: -0.0021% [at 11.5 µM].

For `CN(C(=O)Cc1ccc(Cl)c(Cl)c1)[C@@H]1CC[C@@]2(CCCO2)C[C@H]1N1CCCC1`, the activity change, negative = inhibition under setting [1] was inactive: 1.85%.

For `O=P(Nc1nccs1)(c1ccccc1)c1nc2ccccc2s1` (configuration not stated), the activity change, negative = inhibition under setting [1] is inactive: 1.24%.

With `CCOP1(=S)c2c(C)nn(CCC#N)c2N=C(c2ccccc2F)N1C` (configuration not stated), under setting [1], the activity change, negative = inhibition is inactive: -7.05%.

For `O=[As](O)(O)c1ccc([As](=O)(O)O)cc1`, the activity change, negative = inhibition under setting [1] was inactive: 1.06% [at 11.5 µM].

`NC(=O)Nc1ccc([As](=O)(O)O)cc1`: the activity change, negative = inhibition reads like this: (at 25.7 µM (top of the series)) inactive: 3.63%; (at 57.5 µM (top of the series)) inactive: -1.07%.

For `CCOP1(=S)c2c(C)nn(CCC#N)c2N=C(c2ccc(F)cc2)N1C` (configuration not stated), under setting [1], the activity change, negative = inhibition was inactive: 7.5%.

Regarding `O=[As]c1ccc(S(=O)(=O)NCCO)cc1` (configuration not stated), the activity change, negative = inhibition under setting [1] is inactive: -0.148% [at 11.5 µM].

Take `[N-]=[N+]=NCC(N)=O`: under setting [1], the activity change, negative = inhibition was inactive: 1.81% [at 11.5 µM].

As for `O=C(OC1CN2CCC1CC2)C12CC3CC(CC(C3)C1)C2` (configuration not stated), the activity change, negative = inhibition under setting [1] was inactive: -0.0365%.

For `NC(=O)Nc1cc([As](=O)(O)O)cc(I)c1O`, the activity change, negative = inhibition under setting [1] is inactive: -3.77% [at 11.5 µM].

For `COP1(=S)c2c(C)nn(CCC#N)c2N=C(c2ccc(F)cc2)N1C` (configuration not stated), the activity change, negative = inhibition under setting [1] was inactive: 6.42%.

Take `O=C(COc1ccccc1)OC1CN2CCC1CC2` (configuration not stated): the activity change, negative = inhibition under setting [1] is inactive: -1.01%.

For `O=C(O)[C@@H](O)c1ccc([As](=O)(O)O)cc1`, the activity change, negative = inhibition under setting [1] is inactive: -0.943% [at 11.5 µM].

In the case of `CN(N=O)C(=N)N[N+](=O)[O-]`, under setting [1], the activity change, negative = inhibition was inactive: 0.271%.
